Measured values as given in US9902728B2, “Pyrrolo and pyrazolopyrimidines as ubiquitin-specific protease 7 inhibitors” (Forma Therapeutics, Inc., priority 2014, dated 2018).

Amino acid sequences for entries named in this document (tags omitted). Residues count along the entry.
UniProt Q93009, 208-1102 limits assumed: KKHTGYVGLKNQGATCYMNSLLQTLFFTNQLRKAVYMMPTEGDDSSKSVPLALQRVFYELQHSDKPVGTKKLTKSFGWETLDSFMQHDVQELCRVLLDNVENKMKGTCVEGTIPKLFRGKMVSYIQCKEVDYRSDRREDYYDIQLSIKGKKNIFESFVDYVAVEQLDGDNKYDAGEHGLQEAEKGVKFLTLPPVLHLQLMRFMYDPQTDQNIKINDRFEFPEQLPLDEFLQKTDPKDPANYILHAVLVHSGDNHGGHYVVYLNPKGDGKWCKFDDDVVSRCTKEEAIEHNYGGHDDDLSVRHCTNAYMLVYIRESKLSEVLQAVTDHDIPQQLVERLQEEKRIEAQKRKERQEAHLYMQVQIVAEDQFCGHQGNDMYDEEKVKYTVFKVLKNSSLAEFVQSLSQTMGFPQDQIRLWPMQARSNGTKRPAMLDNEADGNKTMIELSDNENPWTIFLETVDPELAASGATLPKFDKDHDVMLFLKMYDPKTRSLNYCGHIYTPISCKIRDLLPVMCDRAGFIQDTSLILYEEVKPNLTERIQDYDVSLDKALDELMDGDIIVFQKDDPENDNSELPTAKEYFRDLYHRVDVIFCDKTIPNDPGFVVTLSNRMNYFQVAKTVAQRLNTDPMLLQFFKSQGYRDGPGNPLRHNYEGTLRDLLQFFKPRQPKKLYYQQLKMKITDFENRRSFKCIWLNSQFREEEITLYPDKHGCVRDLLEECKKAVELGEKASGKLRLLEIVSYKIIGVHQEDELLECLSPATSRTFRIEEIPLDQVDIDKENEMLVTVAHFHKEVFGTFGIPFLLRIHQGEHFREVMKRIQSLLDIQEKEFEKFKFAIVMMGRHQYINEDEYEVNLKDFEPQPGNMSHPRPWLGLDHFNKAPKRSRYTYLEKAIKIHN

Molecular target: USP7 (Homo sapiens, UniProt Q93009)
Experiment: USP7 Assay A (Ubitquin-Rhodamine 110 Assay)
Settings: read-out: USP7_IC50; USP7 activity in USP7 assay A and B (table does not say which assay per compound)

O=C(N1CCC(O)(Cn2cnc3c(cnn3-c3ccc(F)cc3)c2=O)CC1)N1CCC1Cc1ccccc1 (centres unmarked)
IC50: 1 to 10 µM

COC1CCC(Oc2ccc(-n3ncc4c(=O)n(CC5(O)CCN(C(=O)C6(C)CC6)CC5)cnc43)cc2)CC1 (single isomer, unassigned) [Compounds I-1116]
IC50: 0.2 to 1 µM
